Reference: US20190359609A1, “BICYCLIC OGA INHIBITOR COMPOUNDS” (Janssen Pharmaceutica NV, priority 2016, published 2019)

Chains of the proteins cited; added tags and fusions are not shown.
UniProt O60502, whole entry: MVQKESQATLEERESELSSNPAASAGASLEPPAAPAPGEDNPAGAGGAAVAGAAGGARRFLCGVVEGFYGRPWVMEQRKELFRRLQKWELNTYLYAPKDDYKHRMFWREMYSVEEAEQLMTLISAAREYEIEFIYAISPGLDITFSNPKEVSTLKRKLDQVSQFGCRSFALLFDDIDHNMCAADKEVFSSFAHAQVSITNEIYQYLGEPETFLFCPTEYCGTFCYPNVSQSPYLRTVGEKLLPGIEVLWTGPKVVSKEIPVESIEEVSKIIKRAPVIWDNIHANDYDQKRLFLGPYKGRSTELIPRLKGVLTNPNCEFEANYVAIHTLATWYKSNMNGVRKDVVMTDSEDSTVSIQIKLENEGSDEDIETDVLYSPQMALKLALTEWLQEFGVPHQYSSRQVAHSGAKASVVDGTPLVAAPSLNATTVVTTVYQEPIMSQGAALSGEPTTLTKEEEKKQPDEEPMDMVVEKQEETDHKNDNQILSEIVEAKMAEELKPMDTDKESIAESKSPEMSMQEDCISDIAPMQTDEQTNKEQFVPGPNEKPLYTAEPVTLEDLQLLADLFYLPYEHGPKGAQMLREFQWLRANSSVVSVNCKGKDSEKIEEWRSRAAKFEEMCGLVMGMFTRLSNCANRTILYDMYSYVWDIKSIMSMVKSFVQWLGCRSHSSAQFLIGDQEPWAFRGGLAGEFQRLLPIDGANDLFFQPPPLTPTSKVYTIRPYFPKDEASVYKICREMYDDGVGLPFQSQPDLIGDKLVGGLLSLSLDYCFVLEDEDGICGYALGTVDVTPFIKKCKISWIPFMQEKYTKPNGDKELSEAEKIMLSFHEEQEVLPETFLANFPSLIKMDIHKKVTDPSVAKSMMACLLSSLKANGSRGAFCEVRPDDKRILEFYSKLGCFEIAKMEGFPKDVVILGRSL

Assays:
OGA = OGA (Homo sapiens, UniProt O60502); experiment: OGA cellular assay: ICC detection of O-GlcNAcylated proteins in HEK293 cells inducible for P301L mutant human Tau; conditions: 6 hours incubation
Experimental: HEK293 cells inducible for P301L mutant human Tau (isoform 2N4R) were established at Janssen. Thiamet-G was used for both plate validation (high control) and as reference compound (reference EC50 assay validation). OGA inhibition is evaluated through the immunocytochemical (ICC) detection of O-GlcNAcylated proteins by the use of a monoclonal antibody (CTD110.6; Cell Signaling, #9875) detecting O-GlcNAcylated residues as previously described (Dorfmueller et al. 2010 Chemistry & biology, 17:1250).
Inhibition of OGA will result in an increase of 0-GlcNAcylated protein levels resulting in an increased signal in the experiment. Cell nuclei are stained with Hoechst to give a cell culture quality control and a rough estimate of immediate compounds toxicity, if any. ICC pictures are imaged with a Perkin Elmer Opera Phenix plate microscope and quantified with the provided software Perkin Elmer Harmony 4.1.
Cells were propagated in DMEM high Glucose (Sigma, #D5796) following standard procedures. 2 days before the cell assay cells are split, counted and seeded in Poly-D-Lysine (PDL) coated 96-wells (Greiner, #655946) plate at a cell density of 12,000 cells per cm^2 (4,000 cells per well) in 100 μl of Assay Medium (Low Glucose medium is used to reduce basal levels of GlcNAcylation) (Park et al. 2014 The Journal of biological chemistry 289:13519). At the day of compound test medium from assay plates was removed and replenished with 90 μl of fresh Assay Medium. 10 μl of compounds at a 10fold final concentration were added to the wells. Plates were centrifuged shortly before incubation in the cell incubator for 6 hours. DMSO concentration was set to 0.2%. Medium is discarded by applying vacuum. For staining of cells medium was removed and cells washed once with 100 μl D-PBS (Sigma, #D8537). From next step onwards unless other stated assay volume was always 50 μl and incubation was performed without agitation and at room temperature. Cells were fixed in 50 μl of a 4% paraformaldehyde (PFA, Alpha aesar, #043368) PBS solution for 15 minutes at room temperature. […] Before analysis samples were washed 2 times manually for 5 minutes in ICC base buffer.
Imaging is performed using Perkin Elmer Phenix Opera using a water 20× objective and recording 9 fields per well. Intensity readout at 488 nm is used as a measure of O-GlcNAcylation level of total proteins in wells. To assess potential toxicity of compounds nuclei were counted using the Hoechst staining. IC50-values are calculated using parametric non-linear regression model fitting. As a maximum inhibition Thiamet G at a 200 uM concentration is present on each plate. In addition, a concentration response of Thiamet G is calculated on each plate.

[1] = target: recombinant human Meningioma Expressed Antigen 5 (MGEA5), also referred to as O-GlcNAcase (OGA) (Homo sapiens, UniProt O60502); experiment: OGA biochemical assay: inhibition of FM-GlcNAc hydrolysis, fluorescence (protocol A 10 nM OGA, 1 h; protocol B 2 nM OGA, 6 h)
Text: The assay is based on the inhibition of the hydrolysis of fluorescein mono-B-D-N-Acetyl-Glucosamine (FM-GlcNAc) (Mariappa et al. 2015, Biochem J 470:255) by the recombinant human Meningioma Expressed Antigen 5 (MGEA5), also referred to as 0-GlcNAcase (OGA). The hydrolysis FM-GlcNAc (Marker Gene technologies, cat # M1485) results in the formation of β-D-N-glucosamineacetate and fluorescein. The fluorescence of the latter can be measured at excitation wavelength 485 nm and emission wavelength 538 nm. An increase in enzyme activity results in an increase in fluorescence signal. Full length OGA enzyme was purchased at OriGene (cat # TP322411). The enzyme was stored in 25 mM Tris.HCl, pH 7.3, 100 mM glycine, 10% glycerol at −20° C. Thiamet G and GlcNAcStatin were tested as reference compounds (Yuzwa et al. 2008 Nature Chemical Biology 4:483; Yuzwa et al. 2012 Nature Chemical Biology 8:393). The assay was performed in 200 mM Citrate/phosphate buffer supplemented with 0.005% Tween-20. 35.6 g Na2HPO4 2 H2O (Sigma, # C0759) were dissolved in 1 L water to obtain a 200 mM solution. 19.2 g citric acid (Merck, #1.06580) was dissolved in 1 L water to obtain a 100 mM solution. pH of the sodiumphosphate solution was adjusted with the citric acid solution to 7.2. The buffer to stop the reaction consists of a 500 mM Carbonate buffer, pH 11.0. 734 mg FM-GlcNAc were dissolved in 5.48 mL DMSO to obtain a 250 mM solution and was stored at −20° C. OGA was used at a 10 nM (protocol A) or 2 nM (protocol B) concentration and FM-GlcNAc at a 100 uM final concentration. Dilutions were prepared in assay buffer.
50 nl of a compound dissolved in DMSO was dispensed on Black Proxiplate™ 384 Plus Assay plates (Perkin Elmer, #6008269) and 3 μl fl-OGA enzyme mix added subsequently. Plates were pre-incubated for 60 min at room temperature and then 2 μl FM-GlcNAc substrate mix added. […] Plates were briefly centrifuged for 1 min at 1000 rpm and incubate at room temperature for 1 h (10 nM OGA, protocol A) or 6 h (2 nM OGA, protocol B). To stop the reaction 5 μl STOP buffer were added and plates centrifuge again 1 min at 1000 rpm. Fluorescence was quantified in the Thermo Scientific Fluoroskan Ascent or the PerkinElmer EnVision with excitation wavelength 485 nm and emission wavelength 538 nm.
For analysis a best-fit curve is fitted by a minimum sum of squares method. From this an IC50 value and Hill coefficient was obtained. High control (no inhibitor) and low control (saturating concentrations of standard inhibitor) were used to define the minimum and maximum values.

[2] = Enzymatic protocol A (10 nM OGA, 1 h)
[3] = Enzymatic protocol B (2 nM OGA, 6 h)

Row | Compound | Cellular Emax (%) (OGA) | Cellular hOGA; pEC50 (OGA) | Enzymatic Emax (%) [1, 2] | Enzymatic hOGA; pIC50 [1, 2] | Enzymatic Emax (%) [1, 3] | Enzymatic hOGA; pIC50 [1, 3]
1 | CC(=O)Nc1ncc(CN2CCCC(c3cc4ncccc4n3C)C2)s1 (racemic) | 123.8% | 7.58 | 101.1% | 7.95 | 101.2% | 8.09
2 | CC(=O)Nc1ncc(CN2CC[C@@H](C)[C@@H](c3cc4ncccc4[nH]3)C2)s1 (relative stereo) | 111.9% | 6.62 | 101.0% | 6.65 | 102.13% | 7.03
3 | CC(=O)Nc1ncc(CN2CCCC(c3cc4ncccc4n3C)C2)s1 (single isomer, unassigned) [16] | 90.5% | 8.06 |  |  | 99.7% | 8.15
4 | CC(=O)Nc1ncc(CN2CCCC(c3cc4ncccc4n3C)C2)s1 (single isomer, unassigned) [17] | 61.9% | 5.14 |  |  | 92.8% | 6.02
